Measured values: patent US9481674B1, “Dihydropyrrolopyridine inhibitors of ROR-gamma” (Vitae Pharmaceuticals, Inc., priority 2016, dated 2016)

Amino acid sequences for entries named in this document (tags omitted). Residues count along the entry.
UniProt P51449, 269-508 limits assumed: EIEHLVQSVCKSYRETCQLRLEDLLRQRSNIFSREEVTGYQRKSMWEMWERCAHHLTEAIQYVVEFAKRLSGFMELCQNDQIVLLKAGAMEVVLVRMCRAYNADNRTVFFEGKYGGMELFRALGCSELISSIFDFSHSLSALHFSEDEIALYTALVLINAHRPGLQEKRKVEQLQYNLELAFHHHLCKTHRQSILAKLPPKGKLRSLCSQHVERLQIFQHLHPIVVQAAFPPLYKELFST

Biological target: T1, recombinant RORγ Ligand Binding Domain (LBD) protein (Homo sapiens, UniProt P51449)
T1 construct: 6×His; GST
Assay: Radio-Ligand RORγ Binding Assay (Assay 1)
Conditions: cell-free competition with 25-hydroxy[26,27-3H]-cholesterol; read-out: RORγ Binding Ki Range* (nM) (Assay 1)
Experimental: Radio-Ligand RORγ Binding Assay (Assay 1)
The plate was shaken at 700 rpm for 20 min and incubated for 10 min at rt, after which 40 μL of poly-Lys YSi SPA beads (PerkinElmer, Cat. # RPNQ0010) were added to achieve 50 μg of the beads per well. The plate was incubated on an orbital shaker for 20 min and then for 10 min without agitation at rt. SPA signal for tritium beta radiation was registered on PerkinElmer Microbeta plate reader.

- Ki: < 100 nM
SMILES: CC[C@H]1c2ncc(C(=O)N[C@@H](CO)c3ccc(S(=O)(=O)CC)cn3)cc2CN1C[C@H]1CC[C@H](C(F)(F)F)OC1 (single isomer, unassigned) [Compound 3]
